From PMC4469479 come the findings set out here.

The test system of the series is NCCc1ccc(O)c(O)c1. As to the kind of experiment: cells, lysate or membranes. The conditions noted are these: pH 7.4.

As for “dDATmfc (Drosophila melanogaster; DEL162-202/DEL602-606/INS607VPRG/L415A/V74A)”, the Km turned out to be 8.2 ± 2.3 µM.
